# Measured affinities in a library of Ab-14 light chain variants

Data: MIT Lincoln Laboratory AlphaSeq set, Li et al. 2023, doi:10.1038/s41467-023-39022-2, as distributed in FLAb.

Target: peptide PDVDLGDISGINAS, taken from heptad repeat 2 (HR2) of SARS-CoV-2 spike.

Parent: Ab-14, a human scFv built as VH, a (GGGGS)3 linker, VL. Only the CDRs of the light chain vary.
VH: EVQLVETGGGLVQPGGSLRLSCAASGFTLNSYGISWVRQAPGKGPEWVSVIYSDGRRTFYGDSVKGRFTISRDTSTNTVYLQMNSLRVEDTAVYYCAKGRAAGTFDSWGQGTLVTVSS
VL: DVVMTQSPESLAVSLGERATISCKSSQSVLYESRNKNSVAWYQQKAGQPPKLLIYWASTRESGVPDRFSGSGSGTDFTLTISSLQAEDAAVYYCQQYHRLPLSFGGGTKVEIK

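These sequences belong to a second round, designed from the earlier measurements on random variants of the parent. Their group label is 14L_Ctrl (Ctrl: baseline library sampled from a position-specific scoring matrix, with some repeated check sequences). AlphaSeq pools MATa yeast showing the antibodies with MATalpha yeast showing the peptide. Binding brings cells together so that they mate, and sequencing counts the barcode pairs among the diploids. Read counts were normalised to the haploid input and turned into Kd by a linear fit to BCL2-family pairs of known affinity, for each replicate. Mating was done six times.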

Positions count from residue 1 of the parent VL; L30E puts E in place of L. Numbers give log10(Kd / nM), so 0 is 1 nM and 3 is 1 µM. Smaller is tighter. A pair that was not seen in that replicate is written "nd"; this usually means weak binding, but a binder can also be missed. In the paper, a design with two or fewer of six values counts as a poor binder. Values of this round are not directly comparable with the first-round values of the same sequences. The parent sequence was in this pool as ten entries: three were never detected, three once, and four in most replicates, with averages from 0.34 to 2.37. Three control strains display no target. For all light chain designs, 4% of the pairings with them gave a signal, with a median of 2.64 and one signal in twenty below 1.59, so weak values seen in few replicates may be background. Also given: how often the same scFv was detected with the empty control strains, with their mean in brackets.

| # | changes | log10 Kd, replicates | empty controls |
|---|---|---|---|
| 1 | L30E S33E N37Q W56D | 0.57 / 0.46 / 0.44 / 0.73 / 0.21 / 0.41 | 1 of 18 (1.51) |
| 2 | V29Q S38N W56Q | nd / nd / nd / nd / nd / nd | 0 of 18 |
| 3 | E32L R34L W56D | 0.62 / 0.84 / 0.78 / 0.74 / 0.50 / 1.15 | 0 of 18 |
| 4 | Y31M A57V | 2.26 / 1.97 / nd / 2.47 / nd / 2.19 | 0 of 18 |
| 5 | K36A E61T | nd / nd / nd / nd / nd / 2.63 | 1 of 18 (1.63) |
| 6 | N35A Y97V | nd / nd / nd / nd / nd / nd | 0 of 18 |
| 7 | S33Q L102E | 1.46 / nd / nd / nd / nd / nd | 1 of 18 (2.96) |
| 8 | V29G W56D L102I | 0.41 / 0.04 / 0.07 / -0.26 / 0.17 / 0.48 | 2 of 18 (4.22) |
| 9 | S25L V29M N35D W56G | 0.18 / 0.18 / -0.03 / 0.02 / 0.23 / 0.19 | 1 of 18 (3.77) |
| 10 | S25I S33L K36A S38A W56Q S62W H98M S103F | nd / nd / nd / nd / nd / nd | 0 of 18 |
| 11 | Y31P A57K T59I R99S L102N | nd / nd / nd / nd / nd / nd | 0 of 18 |
| 12 | Y31F S33E | nd / nd / nd / nd / nd / nd | 0 of 18 |
| 13 | K24S H98K | nd / nd / 2.43 / 2.11 / 3.34 / 1.62 | 1 of 18 (2.70) |
| 14 | S33E K36D N37I T59L S62G H98Q | nd / nd / nd / nd / nd / nd | 0 of 18 |
| 15 | Q27H L30Y R34T W56E E61V | 0.55 / 0.14 / 0.57 / 0.32 / -0.02 / 0.23 | 2 of 18 (2.89) |
| 16 | S25T L30R | nd / nd / nd / nd / nd / nd | 1 of 18 (1.39) |
| 17 | Q27D L30G V39I W56R | 0.46 / 0.46 / 0.37 / 0.40 / 0.46 / 0.54 | 0 of 18 |
| 18 | V29A Y97H H98N | nd / nd / nd / nd / nd / nd | 0 of 18 |
| 19 | K36F S103D | nd / nd / 1.94 / nd / nd / nd | 0 of 18 |
| 20 | N35D W56H H98A | 0.47 / 0.51 / 0.64 / 0.30 / 0.63 / 0.55 | 1 of 18 (2.32) |
| 21 | Y31F S103F | nd / nd / nd / nd / nd / nd | 1 of 18 (2.44) |
| 22 | R34A N35P W56A T59H | nd / nd / nd / nd / nd / nd | 0 of 18 |
| 23 | V39I W56G T59A | 1.90 / nd / 2.25 / 3.66 / 2.52 / 2.85 | 1 of 18 (3.24) |
| 24 | L30S R34F S103L | nd / nd / nd / 1.57 / 1.90 / nd | 1 of 18 (1.98) |
| 25 | V29E L30W | nd / nd / nd / nd / nd / nd | 0 of 18 |
| 26 | W56N E61V Q96A | 1.69 / 0.91 / 1.09 / 1.35 / 0.98 / 1.47 | 1 of 18 (3.01) |
| 27 | S25L W56S H98C R99F | 1.16 / 0.98 / nd / 0.45 / 0.66 / 1.24 | 0 of 18 |
| 28 | S25H Y31A P101H | nd / nd / nd / nd / nd / nd | 0 of 18 |
| 29 | S25M S33D W56Q S62P P101I | nd / nd / nd / nd / nd / nd | 0 of 18 |
| 30 | S25V W56R | 0.24 / 0.18 / -0.08 / 0.09 / 0.25 / 0.38 | 0 of 18 |
| 31 | Y31D N35C L100S | nd / nd / nd / nd / 1.60 / nd | 0 of 18 |
| 32 | W56H | 0.68 / 0.56 / 0.75 / 0.74 / 0.67 / 1.07 | 1 of 18 (2.99) |
| 33 | S25P L30S Y31D W56S E61V S62E | 0.38 / 0.09 / 0.62 / -0.04 / 0.39 / 0.48 | 0 of 18 |
| 34 | Y31M S33D A57G R99S | 1.57 / nd / 1.35 / 1.50 / 2.87 / 1.61 | 1 of 18 (2.38) |
| 35 | W56G A57G S62I Q96S | 0.68 / 1.19 / 1.02 / 1.26 / 1.44 / 1.09 | 0 of 18 |
| 36 | S25Y R34E K36P W56S | 0.78 / -0.09 / 0.50 / 0.67 / 0.39 / 0.80 | 0 of 18 |
| 37 | S38P W56S R99Y | 2.99 / 1.62 / 1.93 / nd / 2.88 / 2.25 | 1 of 18 (3.30) |
| 38 | Y31M K36I | 1.57 / 1.76 / 1.72 / 1.45 / 1.76 / 1.03 | 0 of 18 |
| 39 | S25C Q27V W56N S58Q R99E | 0.48 / 0.39 / 0.26 / 0.39 / 0.35 / 0.65 | 1 of 18 (2.47) |
| 40 | S62I P101H | nd / nd / nd / nd / nd / nd | 0 of 18 |
| 41 | K24M L30E S33D R34F S62D | nd / nd / 1.72 / 2.13 / 2.34 / 1.69 | 0 of 18 |
| 42 | S28K V29L L30P K36W W56H Y97D | 2.18 / 1.04 / nd / 1.88 / 1.04 / 1.55 | 0 of 18 |
| 43 | S25H W56A S58N S62N Y97P | nd / nd / nd / nd / nd / nd | 0 of 18 |
| 44 | N35L S38N | nd / 1.14 / 1.77 / nd / nd / nd | 0 of 18 |
| 45 | S25Y S26P | 1.32 / 1.46 / 1.04 / 1.01 / 0.60 / 1.82 | 1 of 18 (2.48) |
| 46 | K24A Q27N S62K L102S | 1.55 / 1.91 / nd / nd / 2.52 / 1.73 | 0 of 18 |
| 47 | N37H W56E E61M H98C | 1.12 / 0.70 / 0.72 / 0.67 / 1.18 / 0.70 | 2 of 18 (2.53) |

A selection of 7 entries from above:

| changes | log10 Kd, replicates | empty controls |
|---|---|---|
| Y31D N35C L100S | nd / nd / nd / nd / 1.60 / nd | 0 of 18 |
| K24M L30E S33D R34F S62D | nd / nd / 1.72 / 2.13 / 2.34 / 1.69 | 0 of 18 |
| R34A N35P W56A T59H | nd / nd / nd / nd / nd / nd | 0 of 18 |
| S25L V29M N35D W56G | 0.18 / 0.18 / -0.03 / 0.02 / 0.23 / 0.19 | 1 of 18 (3.77) |
| S25H Y31A P101H | nd / nd / nd / nd / nd / nd | 0 of 18 |
| S25H W56A S58N S62N Y97P | nd / nd / nd / nd / nd / nd | 0 of 18 |
| S25C Q27V W56N S58Q R99E | 0.48 / 0.39 / 0.26 / 0.39 / 0.35 / 0.65 | 1 of 18 (2.47) |